We go through one substance from patent US20220249814A1, “METHODS AND DEVICES FOR TREATING A DISEASE WITH BIOTHERAPEUTICS” (PROGENITY, INC., priority 2018, published 2022).

This data set is described as follows: Example 3 blood insulin pharmacokinetics after SC or intra-jejunal jet delivery. It is filed as in vivo, Yorkshire female swine.

As to “Novolin® R: regular human insulin (NOVOLIN® R)”, the Tmax blood insulin (IJ administration by jet delivery device (~40 U), animal 18P14) was determined as 1.25 h and the Tmax blood insulin (SC administration, animal 18P21) was found to be 1.25 h.
